Measured values reported in PMC6944907.

Molecular target: SAMHD1 109–626 with His tag (human) (UniProt Q9Y3Z3)
Assay: MST

## TRIM21-PRY&SPRY motif with GST tag (domain or fragment)
  Kd: 270 nM
